{"source": "ChEMBL document CHEMBL3244191", "about": "“Study of the structural requirements for dopa potentiation and oxotremorine antagonism by L-prolyl-L-leucylglycinamide” (J Med Chem, 1978)", "key": {"Mus musculus [1]": {"test_system": "Mus musculus", "assay": "Potentiation of dl-DOPA-induced behavioral effects in ICR mouse assessed as slight piloerection, slight salivation and slight increased motor activity at 10 mg/kg, ip administered 1 hr prior to dl-DOPA-challenge measured for 1 hr", "assay_type": "functional, organism-based", "design": "dose 10 mg/kg"}, "Mus musculus [2]": {"test_system": "Mus musculus", "assay": "Suppression of oxotremorine-induced tremor in ICR mouse at 20 mg/kg, ip pretreated for 1 hr followed by oxotremorine-challenge", "assay_type": "functional, organism-based", "design": "dose 20 mg/kg"}}, "note": "Calls of active or inactive are those of the source. The calls are words filed in the database; no cut-off is given here.", "data": [{"smiles": "CC(C)C[C@H](NC(=O)[C@@H]1CCCN1)C(=O)NCC(=O)O", "values": [{"measurement": "Activity", "setting": "Mus musculus [1]", "result": "Active"}, {"measurement": "Activity", "setting": "Mus musculus [2]", "result": "inactive"}]}]}
